# Laboratory results from PubChem BioAssay AID595 (National Center for Advancing Translational Sciences (NCATS), 2007).
# The list shows a part of the results, in another mix than the full data. Results filed as inconclusive are left out. The source made the active and inactive calls. Calls follow the shape of the dose curve; as a rule, active = well fitted curve in either direction with a large enough effect; inconclusive = small, poorly fitted or top-dose-only effect, or another doubt; inactive = flat fitted curve, though single readings scatter.
# System: Hsp90 C-terminal peptide / TPR2A (Hop) interaction, human
# Assay: qHTS Assay for Disrupters of an Hsp90 Co-Chaperone Interaction
# Conditions: AlphaScreen TPR2A-His6 binding biotin-Hsp90 C-terminal peptide; series mostly up to 57 µM; activity change, negative = inhibition: at the top concentration
# Excerpt: NIH Chemical Genomics Center [NCGC]
# NIH Molecular Libraries Screening Centers Network [MLSCN]
# Hsp90 (heat shock protein 90) is the essential molecular chaperone and it accounts for 1-2% of all cytosolic proteins and is critical for the activity of diverse cellular proteins that are involved in a variety of cellular processes, including development, cell cycle, and steroid hormone signaling. Its client proteins include signaling kinases such as IGF1R, Akt, v-Src, Raf-1; regulators of cell survival such as Bcr-Abl; and transcription factors such as mutated p53, estrogen and progesterone receptors. Hsp90 has emerged as an important target for cancer treatment due to its essential role in maintaining transformation and regulating the function of oncogenic signaling proteins.
# The in vivo function of Hsp90 is regulated by the binding and hydrolysis of ATP at its N-terminal. Geldanamycin binds to ATP site and inhibit Hsp90 function. Geldanamycin and its analogues are under clinical trials in cancer patients.
# This domain contains the binding site for tetratricopeptide repeat (TPR) domains on HOP (Hsp Organizing Protein). TPR is a structural motif used by a significant number of cochaperones by which the in vivo function of Hsp90 is regulated. TPR2A on HOP binds specifically to MEEVD motif of the C-terminal of Hsp90.
# A homogeneous AlphaScreen is developed to assess the interaction between TPR2A and MEEVD motif of the C-terminal of Hsp90 by using the isolated TPR2A domain and a synthesized 20mer Hsp90 C terminal peptide. AlphaScreen is two bead-based proximity-dependent chemical energy transfer luminescent assay platform. TPR2A-His-6 and biotinylated Hsp90 C terminal peptide will bring streptavidin donor beads and nickel chelate acceptor beads to a proximity range (less than 200 nm), and subsequently lead a chemical luminescent reaction upon exciting donor beads with 680 nm laser. Inhibition of TPR2A and MEEVD motif interaction by small molecules could attenuate or abolish this chemical luminescent reaction.
# Counter screening: Biotinylated-His-6 (PerkinElmer) can be utilized as a counter screen, as it serves as a linker to bring streptavidin beads and nickel chelate beads together. The counter screen can exclude alpha screen platform false positives due to small molecules being metal chelators, biotin analogues and imidazole analogues, or due to interfering with oxygen release from donor beads. Such an assay should be utilized to qualify any activity observed in this screen.
# NCGC Assay Protocol Summary:
# The assay was performed on 1536-well white plate (untreated solid bottom). Liquids were dispensed by 1536-well plate washer (Kalypsys, San Diego, CA). Plates were read on EnVision (PerkinElmer, Boston, MA).TPR2A-His6 was produced using a bacteria expression system and purified using a well developed method (Ghosh et al., 2000). Hsp90 C terminal 20-mer peptide with or without an N-terminal biotin group are synthesized using automated solid phase synthesis by the Yale Keck facility. The composition of assay buffer was (in mM) 25 HEPES, 100 KCl, 2 MgCl2 and 2 DTT; 0.1% BSA and 0.01% Tween-20. TPR2A-His6 binding to biotin-Hsp90 will bring streptavidin donor beads and nickel chelate acceptor beads (PerkinElmer) together and can be measured by Alpha reading by EnVision (PerkinElmer). Free Hsp90 blocks biotin-Hsp90 binding to TPR2 and serves as a positive control in the current asssay.
# The assay was performed at room temperature. All compounds were screened as titrations from […] to 46 uM final concentration. The assay was performed in 1536-well format plates (untreated white solid bottom, Corning Inc.) as follows:
# Sequence,Parameter,Value,Description
# 1,Reagent,3 uL TPR2A-His6,Final concentration was 5nM
# 2,Compound,23 nL,Final titration was from 0.7 nM to 46 uM
# 3,Time,15 minutes,Room temperature
# 4,Reagent,1 uL biotin-Hsp90,With and without free Hsp90. Final concentration was 10 nM for biotin-Hsp90 and 10uM for free Hsp90.
# 5,Time,1 hour,Room temperature
# […]
# % is scaled to controls: 0 for no effect and ±100 for the full control effect; potency is read from the fitted curve at half-maximal effect.
Compound,"activity change, negative = inhibition",Potency
[N-]=[N+]=NCC(O)CN=[N+]=[N-] (stereo not drawn),inactive: -3.58% [at 11 µM],
C(Cc1nn[nH]n1)c1nn[nH]n1,inactive: -1.98% [at 11 µM],
CN(C(=O)Cc1ccc(Cl)c(Cl)c1)[C@H]1CCCC[C@@H]1N1CCCC1,inactive,
Cc1c2non([O-])c-2c(C)[n+](=O)[n+]1[O-],inactive: -4.48%,
NCC[C@@H](N)CSP(=O)(O)O,inactive: -0.035% [at 11 µM],
O=[N+]([O-])c1ccc(C[As](=O)(O)O)cc1,inactive: -0.397% [at 11 µM],
O=C(CO)Nc1ccc([As](=O)(O)O)cc1,inactive: -2.86% [at 11 µM],
CCc1nc2c(n1)c1c(non1O)c1c2no[n+]1[O-],,active: 7.94 µM
CN(C(=O)Cc1ccccc1)[C@@H]1CC[C@@]2(CCCO2)C[C@H]1N1CCCC1,inactive: -2.71%,
O=C(OC1CN2CCC1CC2)c1cccc(Cl)c1 (stereo not drawn),inactive: 0.392%,
Cc1cc([N+](=O)[O-])cc([N+](=O)[O-])c1O,inactive: 1.5%,
[N-]=[N+]=Nc1ccc([As](=O)(O)O)cc1,inactive: -0.386% [at 11 µM],
CN1CCC[C@H](OC(=O)C(c2ccccc2)c2ccccc2)C1,inactive: 2.81% [at 11 µM],
C[C@@H](O)COc1ccc([As](=O)(O)O)cc1N,inactive: -4.14% [at 11 µM],
O=P(Nc1nccs1)(c1ccccc1)c1ccccc1,inactive: -2.46%,
c1nnnn1CCn1cnnn1,inactive: 1.39%,
O=P1(Nc2nc3ccc(Cl)cc3s2)COc2ccccc2O1 (stereo not drawn),inactive: -1.64%,
COC(=O)c1cc2c(s1)N=C(c1ccccc1)N(C)P2(=O)N1CCOCC1 (stereo not drawn),inactive: -2.07%,
NC(=O)Nc1ccc([As](=O)(O)O)cc1,inactive,

Compound,"activity change, negative = inhibition",Potency
CCOP1(=S)c2c(C)nn(CCC#N)c2N=C(c2ccc(F)cc2)N1C (stereo not drawn),inactive: 1.31%,
O=P(Nc1nccs1)(c1ccccc1)c1nc2ccccc2s1 (stereo not drawn),inactive: -7.91%,
CCOP1(=S)c2c(C)nn(CCC#N)c2N=C(c2ccccc2F)N1C (stereo not drawn),inactive: 2.17%,
O=[As](O)(O)c1ccc([As](=O)(O)O)cc1,inactive: -1.79% [at 11 µM],
NS(=O)(=O)Cc1ccc([As](=O)(O)O)cc1,inactive: -0.383% [at 11 µM],
O=C(CC(=O)c1ccccc1)O[C@H]1CN2CCC1CC2,inactive: 0.132% [at 11 µM],
CN(C(=O)Cc1ccc(Cl)c(Cl)c1)[C@@H]1CC[C@@]2(CCCO2)C[C@H]1N1CCCC1,inactive: -3.19%,
CN(C(=O)Cc1ccc(Cl)c(Cl)c1)[C@@H]1CCCC[C@H]1N1CCCC1,inactive,
CN(CCCl)Cc1cc(Cl)c(NC2=NCCN2)c(Cl)c1,inactive: -10.8%,
O=P1(Nc2ccccn2)COc2ccccc2OC1,inactive: -6.98%,
O=P1(Nc2ncccn2)COc2ccccc2OC1,inactive: -3.95%,
Cc1nn(-c2ccccc2)c2c1P(=O)(N1CCOCC1)N(C)C(c1ccccc1)=N2 (stereo not drawn),inactive: -0.196%,
CN(N=O)C(=N)N[N+](=O)[O-],inactive: -0.134%,
COP1(=S)c2c(C)nn(CCC#N)c2N=C(c2ccc(F)cc2)N1C (stereo not drawn),inactive: -1.93%,
O=C(COc1ccccc1)OC1CN2CCC1CC2 (stereo not drawn),inactive: -4.45%,
O=C(O)[C@@H](O)c1ccc([As](=O)(O)O)cc1,inactive: 0.946% [at 11 µM],
O=C(OC1CN2CCC1CC2)C12CC3CC(CC(C3)C1)C2 (stereo not drawn),inactive: -3.95%,
NC(=O)Nc1cc([As](=O)(O)O)cc(I)c1O,inactive: 2.29% [at 11 µM],
[N-]=[N+]=NCC(N)=O,inactive: -4.27% [at 11 µM],
